Assay results as given in US5852187A, “Molecular cloning of the ovine pituitary growth hormone releasing hormone receptor” (priority 1996, dated 1998).
pKi: −log10 of the molar value.

Target: T1, GHRH-R encoded by HAP 7 cDNA (Homo sapiens, UniProt Q02643)
T1 construct: expressed in transfected cells; host or cells: Cos-1 cells (membranes), pCDM8 vector
T1 sequence (Q02643 23-423): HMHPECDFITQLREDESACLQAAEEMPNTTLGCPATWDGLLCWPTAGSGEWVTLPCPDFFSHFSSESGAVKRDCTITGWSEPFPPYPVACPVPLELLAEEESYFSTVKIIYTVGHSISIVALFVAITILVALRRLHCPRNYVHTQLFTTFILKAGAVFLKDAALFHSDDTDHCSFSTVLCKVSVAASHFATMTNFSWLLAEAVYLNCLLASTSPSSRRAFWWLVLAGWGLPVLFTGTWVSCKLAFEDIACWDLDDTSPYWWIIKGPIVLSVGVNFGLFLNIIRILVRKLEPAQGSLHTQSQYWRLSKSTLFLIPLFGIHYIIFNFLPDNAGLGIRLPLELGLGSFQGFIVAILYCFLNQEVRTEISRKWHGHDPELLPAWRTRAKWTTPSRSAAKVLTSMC
Assay: Iodinated GHRH binding to COS cell membranes transfected with pCDM8 containing HAP 7 cDNA
Details: HAP 7 transfected COS cell membranes, FIG. 16; read-out: Ki, competition for iodinated GHRH binding

pKi: ~7.52
SMILES: CC[C@H](C)[C@H](NC(=O)CNC(=O)[C@H](CC(=O)O)NC(=O)[C@H](CO)NC(=O)[C@@H](N)Cc1c[nH]cn1)C(=O)N[C@@H](Cc1ccccc1)C(=O)N[C@H](C(=O)N[C@@H](CC(=O)O)C(=O)N[C@@H](CO)C(=O)N[C@@H](Cc1ccc(O)cc1)C(=O)N[C@@H](CO)C(=O)N[C@@H](CCCNC(=N)N)C(=O)N[C@@H](Cc1ccc(O)cc1)C(=O)N[C@@H](CCCNC(=N)N)C(=O)N[C@@H](CCCCN)C(=O)N[C@@H](CCC(N)=O)C(=O)N[C@@H](CCSC)C(=O)N[C@@H](C)C(=O)N[C@H](C(=O)N[C@@H](CCCCN)C(=O)N[C@@H](CCCCN)C(=O)N[C@@H](Cc1ccc(O)cc1)C(=O)N[C@@H](CC(C)C)C(=O)N[C@@H](C)C(=O)N[C@@H](C)C(=O)N[C@H](C(=O)N[C@@H](CC(C)C)C(=O)NCC(=O)N[C@@H](CCCCN)C(=O)N[C@@H](CCCNC(=N)N)C(=O)N[C@@H](Cc1ccc(O)cc1)C(=O)N[C@@H](CCCCN)C(=O)N[C@@H](CCC(N)=O)C(=O)N[C@@H](CCCNC(=N)N)C(=O)N[C@H](C(=O)N[C@@H](CCCCN)C(=O)N[C@@H](CC(N)=O)C(=O)N[C@@H](CCCCN)C(N)=O)C(C)C)C(C)C)C(C)C)[C@@H](C)O [PACAP, pituitary adenylate cyclase activating peptide]
